According to patent US20170002313A1, “COMPOSITIONS AND METHODS OF OBTAINING AND USING ENDODERM AND HEPATOCYTE CELLS” (Genentech Inc., priority 2012, published 2017):

Legend:
[1] = molecular target: PI3K alpha (Homo sapiens, UniProt P42336); assay: In vitro kinase profile, PI3K alpha_MTOR score; assay type: biochemical
[2] = molecular target: mTOR (Homo sapiens, UniProt P42345); assay: In vitro kinase profile, PI3K alpha_MTOR score; assay type: biochemical

Structure (SMILES)	PI3K alpha_MTOR score: PI3K alpha [1]	PI3K alpha_MTOR score: MTOR [2]
Cn1c(=O)n(-c2ccc(C(C)(C)C#N)cc2)c2c3cc(-c4cnc5ccccc5c4)ccc3ncc21 [NVPBEZ235]	+	
CCC(=O)N1CCN(c2ccc(-n3c(=O)ccc4cnc5ccc(-c6cnc7ccccc7c6)cc5c43)cc2C(F)(F)F)CC1 [Torin1]		+++
